Results reported in patent US20250381110A1, “SKIN CARE COMPOSITION AND METHOD OF USING THE SAME” (THE PROCTER & GAMBLE COMPANY, priority 2024, published 2025).
Where a name gives a salt, the structure may show the parent alone.

Tested on: p62-dependent mitophagy
Test: Luciferase-p62 assay (Fluc-p62 clearance) in mouse embryonic fibroblasts
Type: cell-based
Settings: for Mean Luminescence: Luciferase-p62 assay, mouse embryonic fibroblasts (MEFs), compounds at 10 μM; for % Activity relative to Rapamycin: percentage of activity relative to rapamycin tested in the same experiment at the same concentration; for % Activity relative to Rapamycin / % Activity over baseline: MEFs, 10 μM; for % Activity over baseline: percentage of Luciferase-p62 clearance relative to baseline (mean luminescence in the absence of doxycycline induction)

In the case of `C[C@@H]1CC[C@H]2[C@@H](C)C(=O)O[C@@H]3O[C@@]4(C)CC[C@@H]1[C@]32OO4` [Artemisinine], the “Mean Luminescence” value is reported as 982.40 and the “% Activity relative to Rapamycin” value is reported as 70.78%.
`CC(C)NCC(O)c1ccc(O)c(O)c1` (centres unmarked) [Isoprenaline HCl] was tested, and the “Mean Luminescence” value was 908.26, the “% Activity over baseline” value was 43.87% and the “% Activity relative to Rapamycin” value was 79.04%.
With `N=C(N/N=C/c1ccc(Cl)cc1)N/N=C/c1ccc(Cl)cc1` [Robenidine hydrochloride] the “Mean Luminescence” value was 794.31, the “% Activity over baseline” value was 50.91% and the “% Activity relative to Rapamycin” value was 91.73%.
